{"source": "patent US10669261B2", "about": "“Heteroarylhydroxypyrimidinones as agonists of the APJ receptor” (BRISTOL-MYERS SQUIBB COMPANY, priority 2015, dated 2020)", "origin": "cited, not measured here", "details": "cited from earlier work", "data": [{"substance": "apelin", "values": [{"measurement": "half life in circulation", "value": "less than 5 minutes"}]}]}
